In US8022203B2, “Amino derivatives of beta-homoandrostanes and beta-heteroandrostanes” (Sigma-Tau Industrie Farmaceutiche Riunite S.p.A., priority 2006, dated 2011):

Target: Na^+,K^+-ATPase (Canis lupus familiaris, UniProt P50997)
Experiment: Dog kidney Na+,K+-ATPase inhibition (hydrolysis of 32P-ATP)
Assay type: biochemical
Settings: read-out: Na^+,K^+-ATPase Inhibition IC50; dog kidney enzyme

| SMILES | IC50 [µM] |
| --- | --- |
| CNCCCON=C1CCC2(C)C(C1)NC(=NO)CC1C3CCC(=O)C3(C)CCC12 (stereo not drawn) | 7.5 |
| CC12CCC3C(CC(=NO)NC4CC(=NOC5CCNC5)CCC43C)C1CCC2=O (stereo not drawn) | 5.9 |
| CC12CCC3C(CC(=NO)NC4CC(=NOCCN)CCC43C)C1CCC2=O (stereo not drawn) | 18 |
